Literature values, collected in patent US20060165671A1, “Novel nutraceutical compositions comprising epigallocatechin gallate” (priority 2002, published 2006).

Conditions: in vivo, po

Compound: CC(C)(CO)[C@@H](O)C(=O)NCCC(=O)NCCSSCCNC(=O)CCNC(=O)[C@H](O)C(C)(C)CO [pantethine]
- high density lipoprotein (HDL) cholesterol: increase
- low density lipoprotein (LDL) cholesterol: progressive decrease
- total cholesterol: progressive decrease
- triglycerides: progressive decrease
